Experimental data: US11274348B2, “Use of biomarkers in determining susceptibility to disease treatment” (SINGAPORE HEALTH SERVICES PTE LTD, priority 2016, dated 2022)

Assays:
[1] = system: NCC-HN1 and NCC-HN43 (G/G genotype); format: cell-based, human
[2] = system: oral squamous cell cancer; assay: Clinical response of oral squamous cell cancer patients to gefitinib; format: in vivo, human; conditions: three patients, all A/A genotype
[3] = system: phosphor-AKT, phosphor-S6 and phosphor-ERK in NCC-HN1 and NCC-HN43 (G/G genotype); assay: Western blot of EGFR pathway activation; format: cell-based, human; conditions: G/G genotype lines
[4] = system: EGFR, AKT, ERK and S6 phosphorylation in NCC-HN19 and NCC-HN64 (A/A genotype); assay: Western blot of EGFR pathway activation; format: cell-based, human
[5] = system: NCC-HN19 and NCC-HN64 (A/A); assay: Gefitinib sensitivity after EGFR isoform D knockdown (shIsoD); format: cell-based, human; conditions: shIsoD compared to non-targeted controls
[6] = system: head and neck squamous cell cancers (HNSCC), recurrent, metastatic disease; conditions: monotherapy, metastatic setting; cited from earlier work

Compound | gefitinib sensitivity after isoform D knockdown [1] | gefitinib sensitivity promoted by EGFR-AS1 knock-down, with concurrent isoform D knockdown [1] | response of EGFR wild type patients [2] | effect on phosphor-ERK [3] | effect on phosphor-AKT and phosphor-S6 levels ([3]; in contrast to A/A lines) | EGFR, AKT, ERK and S6 phosphorylation ([4]; after treatment with therapeutic doses of gefitinib) | downstream pathway modulation after reduced expression of isoform D ([4]; shIsoD relative to non-targeting controls, AA-genotype lines) | gefitinib sensitivity after isoform D knockdown [5] | response rates [6] [%]
COc1cc2ncnc(Nc3ccc(F)c(Cl)c3)c2cc1OCCCN1CCOCC1 [gefitinib] | no significant effect | abrogated | exceptional responders | modest, if any effect | required much higher drug doses | significant and consistent reduction | attenuated the impact of gefitinib on downstream pathway modulation | rendered more resistant | 
cetuximab |  |  |  |  |  |  |  |  | 13
